# Laboratory results published in patent publication US9067896B2, “Crystalline forms of 3-(2,6-dichloro-3,5-dimethoxy-phenyl)-1-{6-[4-(4-ethyl-piperazin-1-yl) -phenylamino]-pyrimidin-4-yl}-1-methyl-urea and salts thereof” (Novartis AG, priority 2009, dated 2015).
# Assay: Determination of solubility (equilibration in solvent, filtrate by HPLC)
# Assay type: physicochemical
# Conditions: initial solubility test
# Experimental: Excess free base (free base of Formula I), its phosphate salt (the monophosphoric acid salt of the free base), or another acid salt was equilibrated in solvents for 1 day at 25±0.5° C. The resultant slurry was filtered and the filtrate used for solubility determination by HPLC.
# Solubility of the monohydrate of the anhydrous and monohydrate free base was measured in various aqueous media (e.g., pH 6.8 buffer, pH 4.5 buffer, pH 1 buffer), including simulated and actual human fluids.
# The human fluids were collected from 12 human subjects.
# Solubility studies of the phosphate salt were undertaken in aqueous media and in human fluids at 24 hours.
substance,measurement,setting,value
Malonate,Solubility,Water,920 µg/mL
same,Solubility,pH3 Buffer,3 µg/mL
